Our source for the activity change, negative = cytotoxicity values is PubChem BioAssay AID588856 (National Center for Advancing Translational Sciences (NCATS), 2011).

“And” between values parts separate entries of the source, which are not always exact repeats. Identical values can stand only once. The list shows a part of the results, in another mix than the full data. Some of these compounds have results that are not shown, active ones among them. The source made the active and inactive calls. Calls come from the whole dose curve; as a rule, active = well fitted cell-killing curve with a large enough effect; inactive = no such curve, though single readings can be large or run the other way.

The nature of this test: qHTS for Inhibitors of TGF-b: Cytotox Counterscreen. The following applies: HepG2 CAGA-GFP viability, ATP luminescence, 18 h; at 46.1 µM (top of the series). The source says:
TGF-b is a main component in the TGF-b signaling pathway which plays diverse roles in cellular and development pathways. TGF-b is mediated by transcription factors called "Smads". Although the Smad-dependent pathway is the primary canonical TGF-b signaling mode, TGF-b1 can also activate alternative signaling pathways, including those involving MAPK (ERK, JNK and p38). This interaction may mediate or enhance Smad-dependent responses, or can exert Smad-independent effects. The complexity of this signaling cascade allows the TGF-b superfamily to perform unique, overlapping or redundant functions. We believe that targeting the TGF-beta pathway at the Smad-transcription factor level may eliminate the consequences of disrupting the entire pathway and offer specificity without affecting other signaling pathways. Smad3 is the primary transducer of TGF-b's signals and Smad3 regulates many functions attributed to TGF-b signaling. We hypothesize that Smad3 inhibitors will selectively eliminate Smad3-specific TGF-beta signals without undesired off-target effects. We aim to identify Smad3-small molecule antagonists using a quantitative high throughput screening (qHTS) approach.
A high-throughput assay was developed to screen the NIH Molecular Libraries Small Molecule Repository (MLSMR). This is a cell based assay, where TGF-b is tagged with GFP. This is a counterscreen that evaluates the cytotoxicity of the compounds that were screened in the primary cell-based screen (AID 588855).
MH087449NIH Chemical Genomics Center [NCGC]
NIH Molecular Libraries Probe Centers Network [MLPCN]
Assay Submitter (PI): Sushil Rane, National Institute of […]
Suspensions of trypsinized HEPG2 CAGA-GFP cells were dispensed into white, tissue culture-treated, solid 1536-well plates at 5uL/well (1000 cells/well final concentration) in DMEM medium supplemented with 1% FBS. Plates were incubated at 37 degrees C for 2 hours, after which 23 nL of compounds or DMSO were delivered to each well using a pin tool. One uL of recombinant TGF-beta in DMEM (1% FBS) was then dispensed (500 pg/mL final concentration), and plates were incubated at 37 degrees C for 18 hours. Two uL of CellTiter Glo (Promega), a luminescence-based viability reagent, was dispensed, followed by a 10 minute room temperature incubation. The plates were then measured on a PerkinElmer ViewLux plate reader for luminescence (clear filter) using a 5 second exposure. The %Activity was determined from the corrected luminescence values. Wells containing media only (no cells) were used to normalize %Activity of identified toxic compounds; media-only wells corresponded to 100%Activity (complete cell-killing), while DMSO-dosed cell controls were used to normalize 0%Activity (no toxicity).
Concentration-response curves were fitted to the signals arising from the resulting luminescence. The concentration-effect curves were then classified based on curve quality (r2), response magnitude and degree of measured activity, and compounds were subsequently categorized based on their curve class.
For `COc1cc(C(=O)NCC2(N(C)C)CCCCC2)c([N+](=O)[O-])cc1OC`, the activity change, negative = cytotoxicity was inactive: -13.5%.
The value for `CN(C)C1(CNC(=O)c2ccc(Br)cc2)CCCCC1` was inactive: -20.1%.
Next, `O=C(CBr)c1ccc(Cl)cc1`: inactive: -33.2%.
The value for `O=C(NCC1(N2CCCCC2)CCCCC1)c1cccc(Cl)c1` was inactive: -8.3%; that for `COc1ccc(C(=O)NCC2(N(C)C)CCCCC2)cc1Cl` was inactive: -8.32%; that for `COc1cccc(C(=O)NCC2(N3CCCCC3)CCCCC2)c1` was inactive: 1.94%.
On to `COc1ccc(Cl)cc1C(=O)NCC1(N(C)C)CCCCC1`, for which the activity change, negative = cytotoxicity is inactive: -16.6%.
Next, `CC(C)COc1ccc(C(=O)NCC2(N(C)C)CCCCC2)cc1`: inactive: -46.4%; `O=C(OC1CN2CCC1CC2)C(CO)(c1ccccc1)c1ccccc1` (configuration not stated): inactive: -4.86%.
Next, `COc1cccc(C(=O)NCC2(N3CCOCC3)CCCCC2)c1`: inactive: -26.6%; `CN(C)c1cccc(C(=O)NCC2(N(C)C)CCCCC2)c1`: inactive: -12.6%; `CC(C)Oc1ccc(C(=O)NCC2(N(C)C)CCCCC2)cc1`: inactive: -25.7% and inactive: -13.1%.
Consider `O=C(OCCN1CCCC1)C(O)(c1ccccc1)c1ccccc1`, for which the activity change, negative = cytotoxicity is inactive: -4.28%.
Next, `COc1cc(C(=O)NCC2(N(C)C)CCCCC2)cc(OC)c1OC`: inactive: 7.44%; `Cc1cccc(C(=O)NCC2(N(C)C)CCCCC2)c1`: inactive: 0.355%.
The value for `COc1ccc(Br)c(C(=O)NCC2(N3CCCCC3)CCCCC2)c1` was inactive: -24.4%.
For the compound `C=C(C)C#CC(O)(C(=O)OC1CCN(C)CC1)c1ccccc1` (configuration not stated), the activity change, negative = cytotoxicity was inactive: -0.539%.
Next, `CN1[C@@H]2CC[C@H]1CC(OC(=O)C(O)(c1ccccc1)c1ccccc1)C2` (some centres not stated): inactive: -17.8%; `O=C(NCC1(N2CCCCC2)CCCCC1)c1cc([N+](=O)[O-])ccc1Cl`: inactive: -3.63%.
For `CN(C)C1(CNC(=O)c2ccccc2F)CCCCC1`, the activity change, negative = cytotoxicity is inactive: -15.4%.
Next, `Cc1ccc(C(=O)NCC2(N3CCCCC3)CCCCC2)cc1`: inactive: -11.9%.
For the compound `CC(C)N1C(=O)CC2(CCN(CCOC(=O)C(O)(c3ccccc3)c3ccccc3)CC2)C1=O`, the activity change, negative = cytotoxicity was inactive: 2.75%.
Next, `CN(C)C1(CNC(=O)c2cccc(Cl)c2)CCCCC1`: inactive: -14.9%.
With `CCN(CC)CC(C)C(C)OC(=O)C(O)(c1ccccc1)c1ccccc1` (configuration not stated), the activity change, negative = cytotoxicity was inactive: 2.81%.
Next, `COc1cc(SC)ccc1C(=O)NCC1(N(C)C)CCCCC1`: inactive: 2.36%; `CCCCOc1ccccc1C(=O)NCC1(N(C)C)CCCCC1`: inactive: -61.6%; `CN(C)C1(CNC(=O)c2ccccc2[N+](=O)[O-])CCCCC1`: inactive: -26.6%.
The value for `Cc1ccccc1C(=O)NCC1(N2CCCCC2)CCCCC1` was inactive: -0.98%.
With `CN(C)C1CCCC1OC(=O)C(O)(c1ccccc1)c1ccccc1` (configuration not stated), the activity change, negative = cytotoxicity was inactive: 8.57%.
For `CN(C)c1ccc(C(=O)NCC2(N(C)C)CCCCC2)cc1`, the activity change, negative = cytotoxicity was inactive: 5.21%.
Next, `Cc1cc(C(=O)NCC2(N3CCCCC3)CCCCC2)ccc1[N+](=O)[O-]`: inactive: -7.8%.
Next, `CCN1CCCC(OC(=O)C2(O)c3ccccc3C=Cc3ccccc32)C1` (configuration not stated): inactive: 0.0035%.
Next, `O=C(NCC1(N2CCCCC2)CCCCC1)c1cccc(Br)c1`: inactive: -12.2%; `COc1ccc(C(=O)NCC2(N(C)C)CCCCC2)cc1`: inactive: 8.89%; `CCOc1cccc(C(=O)NCC2(N(C)C)CCCCC2)c1`: inactive: -2.27%.
As for `C=CCN1CCN(CCOC(=O)C(O)(c2ccccc2)c2ccccc2)CC1`, the activity change, negative = cytotoxicity is inactive: 9.27%.
Next, `O=C(NCC1(N2CCCCC2)CCCCC1)c1cc(F)c(F)cc1Cl`: inactive: 4.76%.
